According to publication PMC2642980 (Bioorganic & medicinal chemistry letters, 2008):

Target: T1, adenosine deaminase (ADA) (Homo sapiens, UniProt P00813)
T1 sequence (P00813 1-363): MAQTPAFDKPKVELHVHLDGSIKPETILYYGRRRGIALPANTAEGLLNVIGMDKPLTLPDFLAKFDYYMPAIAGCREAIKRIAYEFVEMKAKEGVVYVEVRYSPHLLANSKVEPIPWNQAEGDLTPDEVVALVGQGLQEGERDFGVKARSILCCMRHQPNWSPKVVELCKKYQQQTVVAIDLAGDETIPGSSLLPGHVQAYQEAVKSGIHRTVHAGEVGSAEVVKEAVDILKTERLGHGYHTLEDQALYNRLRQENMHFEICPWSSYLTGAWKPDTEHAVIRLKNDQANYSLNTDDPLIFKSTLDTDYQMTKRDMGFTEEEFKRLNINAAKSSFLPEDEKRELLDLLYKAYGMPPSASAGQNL
Test: Deamination by adenosine deaminase
Settings: incubation with adenosine deaminase, 90 min

“1-Beta-D-arabinofuranosyladenine [Vidarabine]” was tested, and the “Deamination by adenosine deaminase” value was “rapidly hydrolyzed”.
